The target of assay [1] is T1, Ag hmg AChE (Anopheles gambiae, UniProt Q869C3).
T1 construct: To prepare the Ag homogenate (Ag hmg) 10 Anopheles gambiae mosquitoes were combined; from tissue; host or cells: whole Anopheles gambiae mosquitoes, crude homogenate supernatant
In words: Ellman AChE inhibition assay, Anopheles gambiae homogenate (Ag hmg). The format is biochemical. The settings on record: selectivity, values in parenthesis.

Protein sequences, listed by entry. Tags and fused reporters are not part of them. Residues count along the entry.
UniProt Q869C3, 39-737: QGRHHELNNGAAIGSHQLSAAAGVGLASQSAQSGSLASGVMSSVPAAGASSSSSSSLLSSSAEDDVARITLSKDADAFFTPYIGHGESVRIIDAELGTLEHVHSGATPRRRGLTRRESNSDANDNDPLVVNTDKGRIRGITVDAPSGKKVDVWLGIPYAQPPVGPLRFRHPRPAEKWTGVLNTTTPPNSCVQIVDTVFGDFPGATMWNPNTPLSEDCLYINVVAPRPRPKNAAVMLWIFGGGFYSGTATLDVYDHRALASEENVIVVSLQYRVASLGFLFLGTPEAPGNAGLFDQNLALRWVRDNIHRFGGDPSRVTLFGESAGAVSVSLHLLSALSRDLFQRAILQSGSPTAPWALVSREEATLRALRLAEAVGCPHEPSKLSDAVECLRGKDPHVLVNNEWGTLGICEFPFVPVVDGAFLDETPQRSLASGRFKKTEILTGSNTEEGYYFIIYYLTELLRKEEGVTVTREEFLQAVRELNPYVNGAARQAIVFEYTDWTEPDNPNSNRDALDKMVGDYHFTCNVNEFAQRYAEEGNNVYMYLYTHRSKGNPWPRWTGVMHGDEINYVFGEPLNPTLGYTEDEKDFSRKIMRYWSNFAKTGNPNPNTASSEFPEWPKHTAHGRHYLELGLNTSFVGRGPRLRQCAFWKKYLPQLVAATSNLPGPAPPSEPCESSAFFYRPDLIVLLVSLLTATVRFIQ

The test system of assay [2] is Ag ace-1S. Type of assay: biochemical, Anopheles gambiae. The settings on record: selectivity, values in parenthesis.
Assay [3] relates to Anopheles gambiae. In words: Live mosquito contact toxicity, WHO filter paper assay. The format is in vivo. As to conditions: 1 hr exposure to treated filter paper.

Consider `CNC(=O)Oc1cccc2c1OC(C)(C)C2` [Carbofuran, reference compound], for which the “IC50 ratio (hAChE/Ag hmg)” value in assay [1] is recorded as “(2.8x)”. In addition, the “IC50 ratio (hAChE/Ag ace-1S)” value in assay [2] is “(1.2x)”. The “Live Mosquito Contact Toxicity MC for 100% lethality at 24 hr” value in assay [3] came to 0.55 ug/cm^2.
For `CCCCN(CCCC)SN(C)C(=O)Oc1cccc2c1OC(C)(C)C2` [Carbosulfan, reference compound] the same measures were “(1.4x)”, “(0.54x)” and 1.1 ug/cm^2.

Values taken from patent US8618162B2 (priority 2007, dated 2013).
